Membrane permeability of cyclic peptides

Data: CycPeptMPDB; original report Le Roux et al. 2020, doi:10.1021/acs.jmedchem.0c00013.

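Lipid, pH, incubation time, direction and concentration are not recorded in the data file. Other peptides of the study may be missing here. Peptides that the database sets to -10, its floor, are left out.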

PAMPA is the parallel artificial membrane permeability assay, which has no cells and reads passive diffusion.
Caco-2 values are permeabilities across monolayers of Caco-2 human intestinal cells.
Permeability is given as log10 of P in cm/s; higher (less negative) is more permeable.
A value with < or ≤ is an upper limit.
Cells with "–" have no entry in this list.

compound,PAMPA (log10 cm/s),Caco-2 (log10 cm/s)
CC(C)C[C@@H]1NC(=O)[C@H](C)NC(=O)[C@H](Cc2ccccc2)NCCCCCCCCCCNC1=O,-4.50,-4.35
CC(C)C[C@@H]1NC(=O)[C@H](C)NC(=O)[C@H](Cc2ccccc2)NCCCCCCN(C)C1=O,-4.30,-4.36
CC(C)C[C@@H]1NC(=O)[C@H](C)NC(=O)[C@H](Cc2ccccc2)NCCCCCCCCNC1=O,-4.70,-4.22
CC(C)C[C@@H]1NC(=O)[C@@H](C)NC(=O)[C@H](Cc2ccccc2)NCCCCCCN(C)C1=O,-4.60,-5.11
CC(C)C[C@@H]1NC(=O)[C@H](C)N(C)C(=O)[C@H](Cc2ccccc2)NCCCCCCNC1=O,-4.70,-4.84
CC(C)C[C@@H]1NC(=O)[C@H](Cc2ccccc2)NCCCCCCNC(=O)[C@H](C)NC1=O,-4.50,-4.82
CC(C)C[C@@H]1NC(=O)[C@H](C)NC(=O)CN(Cc2ccccc2)CCCCCCNC1=O,-4.40,-4.13
CC(C)[C@@H]1NC(=O)[C@@H](CO)NC(=O)CNCCCCCCNC1=O,< -7.80,–
CC(C)C[C@@H]1NC(=O)[C@H](C)NC(=O)[C@H](Cc2ccccc2)NCCCCCCCNC1=O,-4.60,-4.16
CC(C)C[C@H]1C(=O)NCCCCCCN[C@@H](Cc2ccccc2)C(=O)N(C)[C@H](C)C(=O)N1C,-4.60,-3.68
CC(C)CN1CC(=O)N(C)CCCCCCN[C@@H](Cc2ccccc2)C(=O)N[C@@H](C)C1=O,-4.50,-3.58
CC(=O)N1CCCCCCNC(=O)[C@H](CC(C)C)NC(=O)[C@H](C)NC(=O)[C@@H]1Cc1ccccc1,-5.10,-4.93
CC(C)C[C@@H]1NC(=O)[C@@H](Cc2ccc(O)cc2)NC(=O)CNCCCCCCNC1=O,< -8.20,–
CC(C)C[C@H]1C(=O)NCCCCCCN[C@@H](Cc2ccccc2)C(=O)N[C@H](C)C(=O)N1C,-4.60,-4.41
CC(C)[C@@H]1NC(=O)[C@@H](CO)NC(=O)[C@@H](C)NCCCCCCNC1=O,-6.30,–
C[C@H]1NCCCCCCNC(=O)[C@H](Cc2ccc(O)cc2)NC(=O)[C@@H]2CCCN2C1=O,< -7.80,–
CC(C)C[C@H]1C(=O)N(C)CCCCCCN[C@@H](Cc2ccccc2)C(=O)N[C@H](C)C(=O)N1C,-4.50,-4.20
CC(C)C[C@@H]1C(=O)N(C)CCCCCCN[C@@H](Cc2ccccc2)C(=O)N[C@@H](C)C(=O)N1C,-4.40,-3.57
CC(C)C[C@@H]1NC(=O)[C@H](C)NC(=O)[C@H](Cc2ccccc2)NCCNC1=O,-5.60,-5.33

The last 2 entries again:

compound,PAMPA (log10 cm/s),Caco-2 (log10 cm/s)
CC(C)C[C@@H]1C(=O)N(C)CCCCCCN[C@@H](Cc2ccccc2)C(=O)N[C@@H](C)C(=O)N1C,-4.40,-3.57
CC(C)C[C@@H]1NC(=O)[C@H](C)NC(=O)[C@H](Cc2ccccc2)NCCNC1=O,-5.60,-5.33